Data from paper PMC3894963, “Expression and Functional Characterization of Membrane-Integrated Mammalian Corticotropin Releasing Factor Receptors 1 and 2 in Escherichia coli” (PLoS ONE, 2014).

The chains behind the UniProt entries cited, without tags or fusion partners. Residues count along the entry.
UniProt Q60748, 25-431 isoform Q60748-2: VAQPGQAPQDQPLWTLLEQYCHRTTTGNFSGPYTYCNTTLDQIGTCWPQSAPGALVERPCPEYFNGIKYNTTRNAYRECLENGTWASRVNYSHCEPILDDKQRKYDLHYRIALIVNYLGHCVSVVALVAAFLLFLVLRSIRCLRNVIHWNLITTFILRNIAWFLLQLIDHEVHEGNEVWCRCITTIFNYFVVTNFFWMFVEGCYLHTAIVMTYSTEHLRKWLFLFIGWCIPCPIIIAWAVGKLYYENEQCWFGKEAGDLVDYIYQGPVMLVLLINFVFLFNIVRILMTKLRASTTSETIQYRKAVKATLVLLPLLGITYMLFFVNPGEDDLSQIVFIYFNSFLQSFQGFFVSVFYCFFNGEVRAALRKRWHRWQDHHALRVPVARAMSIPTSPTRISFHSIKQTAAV

Biological target: T1, mCRFR2β (Mus musculus, UniProt Q60748)
T1 construct: mCRFR2β(Val25-C-term) - PhoA; made in house; host or cells: E. coli (membrane fraction)
Experiment: Competitive displacement of labeled astressin, mCRFR2β in E. coli membranes
Conditions: read-out: Inhibitory binding constant (Ki)
Protocol: The incubation was performed at room temp for 90-120 min, at which time the plates were aspirated and each well was washed with 2×100 μl assay buffer, dried and counted in a γ-counter. Each assay included at least triplicate wells for each concentration, and the assays were repeated at least twice (except where indicated). […] The saturation and competitive binding experiments are analyzed by non-linear regression with the GraphPad Prism program (www.graphpad.com) assuming binding to a single site. Specifically, for saturation binding experiments, binding is determined as a function of increasing concentrations of radioligand. The equation used is y = {(Bmax)^.[radioligand]}/{Kd+[radioligand]}, where y = the specific binding (i.e., total binding-non-specific binding). Competitive binding experiments use a constant concentration of radioligand together with increasing concentrations of competitor. […] Because [radioligand] is <Kd, the Ki = EC50. For multiple determinations, Log (EC50) values were averaged to calculate the values in Table 1. […] In Table 1, the inhibition constant (Ki) values are shown together with the standard error and ranges, calculated assuming log normal distribution.

Ki: 17.7 nM
Compound: CC[C@H](C)[C@H](NC(=O)[C@H](CCC(N)=O)NC(=O)[C@H](C)NC(=O)[C@H](CC(N)=O)NC(=O)[C@@H](NC(=O)[C@H](C)NC(=O)[C@H](C)NC(=O)[C@H](CCC(N)=O)NC(=O)[C@H](CC(N)=O)NC(=O)[C@H](CCCNC(=N)N)NC(=O)[C@H](C)NC(=O)[C@H](C)NC(=O)[C@H](CCCCN)NC(=O)[C@H](Cc1ccc(O)cc1)NC(=O)[C@H](CCCNC(=N)N)NC(=O)[C@H](C)NC(=O)[C@H](CCC(N)=O)NC(=O)[C@H](CCC(=O)O)NC(=O)[C@H](CC(C)C)NC(=O)[C@H](CC(C)C)NC(=O)[C@@H](NC(=O)[C@H](CCCNC(=N)N)NC(=O)[C@H](CC(C)C)NC(=O)[C@H](CC(C)C)NC(=O)CNC(=O)[C@@H](NC(=O)[C@@H]1CCCN1C(=O)[C@@H](NC(=O)[C@H](CC(=O)O)NC(=O)[C@H](CC(C)C)NC(=O)[C@H](CO)NC(=O)[C@H](CC(C)C)NC(=O)[C@@H](NC(=O)[C@@H](N)C(C)C)[C@@H](C)CC)C(C)C)[C@@H](C)CC)[C@@H](C)CC)[C@@H](C)O)C(=O)N[C@@H](CC(C)C)C(=O)N[C@@H](C)C(=O)N[C@@H](Cc1c[nH]cn1)C(=O)N[C@H](C(N)=O)C(C)C [mUcn2]
